The target of assay [1] is RBM39-3xFLAG (human) (UniProt Q14498). Description: anti-FLAG IP of RBM39-3xFLAG from H1155 cells treated with 10 µM indisulam, LC-MS/MS.
Assay [2] shares this target. Description: anti-FLAG IP of RBM39-3xFLAG from H1155 cells treated with DMSO (no indisulam), LC-MS/MS.

Chains of the proteins cited; added tags and fusions are not shown. Lines headed by an entry give the natural chain unless they say otherwise; changes in a name come on top.
UniProt Q14498: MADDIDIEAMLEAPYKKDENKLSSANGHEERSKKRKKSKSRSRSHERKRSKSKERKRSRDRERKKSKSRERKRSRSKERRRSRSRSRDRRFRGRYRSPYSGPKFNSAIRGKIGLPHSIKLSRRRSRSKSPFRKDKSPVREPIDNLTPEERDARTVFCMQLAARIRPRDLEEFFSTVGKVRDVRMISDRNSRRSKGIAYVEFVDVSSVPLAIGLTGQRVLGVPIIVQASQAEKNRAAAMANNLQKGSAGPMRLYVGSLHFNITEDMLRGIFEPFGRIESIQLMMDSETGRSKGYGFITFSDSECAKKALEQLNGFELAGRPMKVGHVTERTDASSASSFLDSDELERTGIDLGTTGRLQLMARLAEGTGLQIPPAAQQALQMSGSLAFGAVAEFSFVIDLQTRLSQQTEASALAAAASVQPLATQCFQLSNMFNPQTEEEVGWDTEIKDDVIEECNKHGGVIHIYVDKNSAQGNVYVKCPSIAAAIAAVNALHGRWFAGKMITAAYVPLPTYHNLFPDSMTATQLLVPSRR

In assay [1], PPIA (from UniProt P62937 1-165) registered an indisulam total (peptide count) of 4 peptides and an indisulam unique (peptide count) of 4 peptides. Also, in assay [2], the DMSO total (peptide count) is 0 peptides and the DMSO unique (peptide count) amounted to 0 peptides.

Source of the values: patent US20180140578A1, “METHODS AND COMPOSITIONS FOR THE DIAGNOSIS AND SELECTIVE TREATMENT OF CANCER” (Board of Regents of the University of Texas System, priority 2016, published 2018).
